Source: ChEMBL document CHEMBL1157649, “Cytotoxic 2-benzylidene-6-(nitrobenzylidene)cyclohexanones which display substantially greater toxicity for neoplasms than non-malignant cells” (Bioorg Med Chem, 2010)

Legend:
Assay type in all cases: functional
[1] = system: HSC-2; assay: Selectivity index, ratio of CC50 for human normal cells to CC50 for human HSC2 cells
Summary of the method: (§1)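 The index is the average CC50 toward the three normal cell types (HGF, HPC, HPLF) divided by the CC50 toward the indicated malignant line.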

[2] = system: HSC-4; assay: Selectivity index, ratio of CC50 for human normal cells to CC50 for human HSC4 cells; summary of the method: as §1
[3] = system: HL-60; assay: Selectivity index, ratio of CC50 for human normal cells to CC50 for human HL60 cells; summary of the method: as §1

SMILES: O=C1/C(=C/c2ccc(F)cc2)CCC/C1=C\c1ccccc1[N+](=O)[O-]
- Selectivity Index [1]: 20
- Selectivity Index [2]: 24
- Selectivity Index [3]: 18
